# Values quoted from earlier work as cited in paper PMC7961786, “Magic Peptide: Unique Properties of the LRR11 Peptide in the Activation of Leukotriene Synthesis in Human Neutrophils” (International Journal of Molecular Sciences, 2021).
# Test system: LTB4 receptor, BLT1; neutrophil migration
# Details: through interaction with BLT1; ref [57]; cited from earlier work
# Source text: RAGE is shown to bind molecules, known as damage-associated molecular patterns (DAMPs), released by cells that die or are under conditions of inflammation.
substance,measurement,value
Soluble RAGE: Soluble RAGE,LTB4-dependent neutrophil migration,inhibited LTB4-dependent neutrophil migration
